Experimental data reported in US11192850B2, “N-aryl oxamic acids” (Purdue Research Foundation, priority 2020, dated 2021).

Chains of the proteins cited; added tags and fusions are not shown. Lines headed by an entry give the natural chain unless they say otherwise; changes in a name come on top. Residues count along the entry.
UniProt P24666: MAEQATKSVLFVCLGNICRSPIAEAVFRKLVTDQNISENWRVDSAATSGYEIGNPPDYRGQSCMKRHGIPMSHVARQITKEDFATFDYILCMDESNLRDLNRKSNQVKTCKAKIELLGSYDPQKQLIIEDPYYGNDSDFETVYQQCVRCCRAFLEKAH
UniProt P15273, 152-461 limits assumed: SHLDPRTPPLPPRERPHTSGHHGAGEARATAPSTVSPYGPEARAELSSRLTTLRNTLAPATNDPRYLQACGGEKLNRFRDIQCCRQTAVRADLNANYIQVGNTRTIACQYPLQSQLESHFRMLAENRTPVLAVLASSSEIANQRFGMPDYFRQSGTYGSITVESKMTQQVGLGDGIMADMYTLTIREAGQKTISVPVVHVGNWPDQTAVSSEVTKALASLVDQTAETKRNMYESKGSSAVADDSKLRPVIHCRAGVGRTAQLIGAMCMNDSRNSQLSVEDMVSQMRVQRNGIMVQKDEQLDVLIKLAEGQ
UniProt Q13332: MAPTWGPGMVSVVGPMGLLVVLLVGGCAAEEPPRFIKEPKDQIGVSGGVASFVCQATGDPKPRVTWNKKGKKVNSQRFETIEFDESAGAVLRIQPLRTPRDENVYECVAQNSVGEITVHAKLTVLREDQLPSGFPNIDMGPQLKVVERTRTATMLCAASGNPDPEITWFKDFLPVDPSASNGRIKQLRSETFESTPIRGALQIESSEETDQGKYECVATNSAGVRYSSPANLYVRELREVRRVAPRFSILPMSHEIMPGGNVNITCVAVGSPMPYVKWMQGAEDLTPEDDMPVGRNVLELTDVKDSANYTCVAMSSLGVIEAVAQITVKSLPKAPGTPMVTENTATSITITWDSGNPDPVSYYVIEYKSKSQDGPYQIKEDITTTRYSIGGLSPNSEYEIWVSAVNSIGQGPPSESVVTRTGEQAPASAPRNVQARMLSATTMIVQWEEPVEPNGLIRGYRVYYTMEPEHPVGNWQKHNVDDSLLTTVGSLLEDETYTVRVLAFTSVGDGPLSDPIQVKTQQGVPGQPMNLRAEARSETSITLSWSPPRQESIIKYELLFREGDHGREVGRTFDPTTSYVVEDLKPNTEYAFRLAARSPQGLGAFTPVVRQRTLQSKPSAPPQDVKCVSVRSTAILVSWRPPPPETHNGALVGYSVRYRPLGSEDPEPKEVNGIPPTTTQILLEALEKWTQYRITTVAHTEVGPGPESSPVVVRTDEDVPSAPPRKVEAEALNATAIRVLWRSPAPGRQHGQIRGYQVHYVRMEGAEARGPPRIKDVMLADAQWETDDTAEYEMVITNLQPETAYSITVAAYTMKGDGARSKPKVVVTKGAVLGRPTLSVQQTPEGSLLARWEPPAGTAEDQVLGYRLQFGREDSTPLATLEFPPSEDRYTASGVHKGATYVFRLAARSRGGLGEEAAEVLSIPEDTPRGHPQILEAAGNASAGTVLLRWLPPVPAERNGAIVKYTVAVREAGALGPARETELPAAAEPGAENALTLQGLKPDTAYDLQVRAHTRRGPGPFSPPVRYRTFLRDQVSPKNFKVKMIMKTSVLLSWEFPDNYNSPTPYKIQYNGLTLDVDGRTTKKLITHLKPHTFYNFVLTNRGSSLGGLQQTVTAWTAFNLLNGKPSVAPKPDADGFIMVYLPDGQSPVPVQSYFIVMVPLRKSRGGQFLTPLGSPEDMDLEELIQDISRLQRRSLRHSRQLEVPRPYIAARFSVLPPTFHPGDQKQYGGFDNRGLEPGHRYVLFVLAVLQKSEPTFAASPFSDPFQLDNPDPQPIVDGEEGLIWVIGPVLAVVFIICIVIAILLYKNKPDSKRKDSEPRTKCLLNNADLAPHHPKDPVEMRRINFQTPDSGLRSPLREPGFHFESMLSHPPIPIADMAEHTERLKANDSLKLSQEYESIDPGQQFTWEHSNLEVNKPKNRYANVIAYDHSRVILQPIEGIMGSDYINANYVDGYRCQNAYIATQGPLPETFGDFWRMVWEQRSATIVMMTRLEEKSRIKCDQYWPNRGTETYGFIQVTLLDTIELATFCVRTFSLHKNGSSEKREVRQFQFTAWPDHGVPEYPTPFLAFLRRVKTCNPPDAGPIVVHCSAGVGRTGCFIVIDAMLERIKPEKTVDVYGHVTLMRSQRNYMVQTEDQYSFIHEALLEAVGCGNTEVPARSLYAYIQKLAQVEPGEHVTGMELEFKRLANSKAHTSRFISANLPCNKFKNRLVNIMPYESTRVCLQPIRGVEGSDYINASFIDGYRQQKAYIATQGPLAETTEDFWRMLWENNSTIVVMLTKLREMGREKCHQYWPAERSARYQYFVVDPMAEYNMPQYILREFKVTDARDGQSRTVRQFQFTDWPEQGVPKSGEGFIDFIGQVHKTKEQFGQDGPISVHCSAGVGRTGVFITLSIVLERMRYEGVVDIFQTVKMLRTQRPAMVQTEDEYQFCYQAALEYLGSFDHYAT

How the values were obtained:
Assay in all cases: biochemical
[1] = molecular target: LMPTP-1 (Homo sapiens (Human), UniProt P24666)
[2] = molecular target: YopH (Yersinia enterocolitica, UniProt P15273)
[3] = molecular target: PTPσ (Homo sapiens (Human), UniProt Q13332)

## O=C(O)C(=O)Nc1ccc(C#Cc2ccc(C(F)(F)F)cc2Cl)cc1 [Compound 4t, 2-((4-((2-chloro-4-(trifluoromethyl)phenyl)ethynyl)phenyl)amino)-2-oxoacetic Acid]
[1]
  IC50: > 30 µM
[2]
  IC50: > 30 µM
[3]
  IC50: > 30 µM

## CN(C)c1cc(O)c(C(=O)O)cc1C#Cc1cccc(NC(=O)C(=O)O)c1 [Compound 4g, 5-((3-(carboxyformamido)phenyl)ethynyl)-4-(dimethylamino)-2-hydroxybenzoic Acid]
[2]
  IC50: > 50 µM
[3]
  IC50: > 50 µM

## O=C(O)C(=O)Nc1ccc(C#Cc2ccc(C(F)(F)F)cc2)cc1 [Compound 4k, 2-oxo-2-((4-((4-(trifluoromethyl)phenyl)ethynyl)phenyl)amino)acetic Acid]
[1]
  IC50: > 30 µM
[2]
  IC50: > 30 µM
[3]
  IC50: > 30 µM
